Measured values reported in patent EP4570793A1, “5-HT2A RECEPTOR INVERSE AGONIST, AND PREPARATION METHOD THEREFOR AND USE THEREOF” (Luye Innomind Pharma Shijiazhuang Co., Ltd., priority 2022, dated 2024).

The chains behind the UniProt entries cited, without tags or fusion partners.
UniProt P28223, whole entry: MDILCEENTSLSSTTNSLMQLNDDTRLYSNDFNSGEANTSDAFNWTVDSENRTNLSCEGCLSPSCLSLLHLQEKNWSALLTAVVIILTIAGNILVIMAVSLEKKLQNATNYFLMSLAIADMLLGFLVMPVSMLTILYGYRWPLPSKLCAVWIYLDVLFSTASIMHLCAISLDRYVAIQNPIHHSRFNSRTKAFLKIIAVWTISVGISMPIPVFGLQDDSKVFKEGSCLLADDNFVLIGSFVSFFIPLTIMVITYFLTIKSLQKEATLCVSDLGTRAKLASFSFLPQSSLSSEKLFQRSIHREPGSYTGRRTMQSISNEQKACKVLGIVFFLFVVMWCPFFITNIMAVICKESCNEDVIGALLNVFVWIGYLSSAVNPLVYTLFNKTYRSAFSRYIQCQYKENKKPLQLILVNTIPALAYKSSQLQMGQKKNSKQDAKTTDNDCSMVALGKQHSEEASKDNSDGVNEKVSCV

Experiments:
[1] = In-vitro liver microsomal stability (human); assay type: in vitro ADME; details: Human liver microsomes, 1 µM, 0.5 mg/mL, NADPH
[2] = In-vitro liver microsomal stability (rat); assay type: in vitro ADME; details: Rat liver microsomes, 1 µM, 0.5 mg/mL, NADPH
5-HT2A receptor = 5-HT2A receptor (Homo sapiens, UniProt P28223); experiment: Assay for 5-HT2A receptor inverse agonist activity (NIH3T3-5-HT2A R cells, Bright-Glo luciferase, cell inhibition rate); details: read-out: 5-HT2A inverse agonist activity IC50, 120 h, luminescence
SD rats = experiment: In-vivo pharmacodynamics: DOI-induced head twitch model; details: reduction of head twitches, single intragastric administration

| Remaining amount% at 60 min [1] [%] | Remaining amount% at 60 min [2] [%] | IC50 (5-HT2A receptor) [nM] | SMILES | effective dose (SD rats) [mg/kg] |
| --- | --- | --- | --- | --- |
| 45.97 | 71.34 |  | CN1CCC(N(Cc2ccc(F)cn2)C(=O)NCc2cnc(OCC(F)(F)F)cc2Cl)CC1 |  |
| 48.30 | 25.13 | > 1000 | CN1CC[C@H](N(Cc2ccc(F)cn2)C(=O)NCc2ccc(OCC(F)(F)F)nc2)[C@H](F)C1 (relative stereo) [Compound 39] |  |
|  |  | 128 | CN1CC[C@H](N(Cc2ccc(F)cn2)C(=O)NCc2ccc(OCC(F)(F)F)nc2)[C@H](F)C1 (relative stereo) [Compound 41] |  |
|  |  | 665 | CN1CC[C@H](N(Cc2ccc(F)cc2)C(=O)NCc2ccc3occc3c2)[C@H](F)C1 (relative stereo) [Compound 87A] |  |
|  |  | 13.7 | CN1CC[C@H](N(Cc2ccc(F)cc2)C(=O)NCc2ccc3occc3c2)[C@H](F)C1 (relative stereo) [Compound 87B] |  |
|  |  | 142 | CN1CC[C@H](N(Cc2ccc(F)cc2)C(=O)NCc2ccc(OCC(F)(F)F)nc2F)[C@H](F)C1 (relative stereo) [Compound 88A] |  |
|  |  | > 1000 | CN1CC[C@H](N(Cc2ccc(F)cc2)C(=O)NCc2ccc(OCC(F)(F)F)nc2F)[C@H](F)C1 (relative stereo) [Compound 88B] |  |
|  |  | 140 | CN1CC[C@H](N(Cc2ccc(F)cc2)C(=O)NCc2cnc(OC3CC(F)(F)C3)c(F)c2)[C@H](F)C1 (relative stereo) [Compound 89A] |  |
|  |  | > 1000 | CN1CC[C@H](N(Cc2ccc(F)cc2)C(=O)NCc2cnc(OC3CC(F)(F)C3)c(F)c2)[C@H](F)C1 (relative stereo) [Compound 89B] |  |
| 42.89 |  | 76.4 | CN1CCC(N(Cc2ccc(F)cc2)C(=O)NCc2ccc(OCC(F)(F)F)nc2)C(F)C1 (single isomer, unassigned) [Compound 68A] | 0.22 |
| 30.07 |  | > 1000 | CN1CCC(N(Cc2ccc(F)cc2)C(=O)NCc2ccc(OCC(F)(F)F)nc2)C(F)C1 (single isomer, unassigned) [Compound 68B] |  |
| 20.2 |  | > 1000 | CN1CCC(N(Cc2ccc(F)cc2)C(=O)NCc2ccc(OCC(F)(F)F)nc2)C(F)C1 (single isomer, unassigned) [Compound 68C] |  |
| 11.9 |  | > 1000 | CN1CCC(N(Cc2ccc(F)cc2)C(=O)NCc2ccc(OCC(F)(F)F)nc2)C(F)C1 (single isomer, unassigned) [Compound 68D] |  |
